# Literature values in US10231995B2, “Selenium-containing compositions and uses thereof” (SELO MEDICAL GMBH, priority 2001, dated 2019).
# System: animals
structure (smiles),measurement,value
[Se] [selenium],selenium content of animal feed at which symptoms of intoxication occur,5 to 10 μg selenium/g
